This is a selection; strong and weak results do not stand in their true shares. Some results for these compounds are left out of this collection, so the calls shown say nothing about other tests. Calls of active or inactive are those of the source.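 Rule for the calls: active = inhibition above about 50% (limit read from the data); inactive = the rest.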

For orientation: inhibition means the change of the read-out against control, counted positive when it falls.

In this assay the test system is calpain II (m-calpain), Sus scrofa. Kind of assay: inhibitors of pig calpain II, primary screen, biochemical, fluorogenic peptide substrate, 1536-well (AID 1236). The note with it: purified calpain II, 30 min, at 16 µM, stronger effect = higher value.
As to `O=C(NCC1(N2CCCCC2)CCCCC1)c1cc([N+](=O)[O-])ccc1Cl`, the inhibition is inactive: 27.1%.
Turning to `CCN(CC)CC(C)C(C)OC(=O)C(O)(c1ccccc1)c1ccccc1` (stereo unspecified), the inhibition was inactive: 2.11%.
With `CC(C)N1C(=O)CC2(CCN(CCOC(=O)C(O)(c3ccccc3)c3ccccc3)CC2)C1=O`, the inhibition is inactive: -10.4%.
Consider `Cc1ccccc1C(=O)NCC1(N2CCCCC2)CCCCC1`, for which the inhibition was inactive: 12.1%.
Then `CN(C)C1CCCC1OC(=O)C(O)(c1ccccc1)c1ccccc1` (stereo unspecified), with inactive: -5.74%; and `CCN1CCCC(OC(=O)C2(O)c3ccccc3C=Cc3ccccc32)C1` (stereo unspecified), with inactive: -4.12%; and `C=CCN1CCN(CCOC(=O)C(O)(c2ccccc2)c2ccccc2)CC1`, with inactive: -2.3%.
Then `COc1cccc(C(=O)NCC2(N3CCCCC3)CCCCC2)c1`, with inactive: -3.36%; and `O=C(OC1CN2CCC1CC2)C(CO)(c1ccccc1)c1ccccc1` (stereo unspecified), with inactive: -29.2%; and `CN(C)c1cccc(C(=O)NCC2(N(C)C)CCCCC2)c1`, with inactive: -41%.
Then `COc1ccc(Br)c(C(=O)NCC2(N3CCCCC3)CCCCC2)c1`, with inactive: 15.6%.

The values are drawn from PubChem BioAssay AID1236 (Emory University Molecular Libraries Screening Center, 2008).
